Like-named read-outs stand apart in the source and are kept apart here.
Experiments:
[1] = target: human norepinephrine reuptake transporter (Homo sapiens, UniProt P23975); assay: cell-based
[2] = target: human serotonin reuptake transporter (Homo sapiens, UniProt P31645); assay: cell-based
[3] = target: T1, norepinephrine transporter (Rattus norvegicus, UniProt Q63380); assay: biochemical; details: Rat IC50 (nM) rNET, rat synaptosomes, norepinephrine transporter (NET)
T1 construct: synaptosomes isolated in a 0.32 M sucrose buffer from a male Wistar rat hypothalamus; from tissue; host or cells: male Wistar rat hypothalamus synaptosomes

The chains behind the UniProt entries cited, without tags or fusion partners. Residues count along the entry.
UniProt P23975, whole entry: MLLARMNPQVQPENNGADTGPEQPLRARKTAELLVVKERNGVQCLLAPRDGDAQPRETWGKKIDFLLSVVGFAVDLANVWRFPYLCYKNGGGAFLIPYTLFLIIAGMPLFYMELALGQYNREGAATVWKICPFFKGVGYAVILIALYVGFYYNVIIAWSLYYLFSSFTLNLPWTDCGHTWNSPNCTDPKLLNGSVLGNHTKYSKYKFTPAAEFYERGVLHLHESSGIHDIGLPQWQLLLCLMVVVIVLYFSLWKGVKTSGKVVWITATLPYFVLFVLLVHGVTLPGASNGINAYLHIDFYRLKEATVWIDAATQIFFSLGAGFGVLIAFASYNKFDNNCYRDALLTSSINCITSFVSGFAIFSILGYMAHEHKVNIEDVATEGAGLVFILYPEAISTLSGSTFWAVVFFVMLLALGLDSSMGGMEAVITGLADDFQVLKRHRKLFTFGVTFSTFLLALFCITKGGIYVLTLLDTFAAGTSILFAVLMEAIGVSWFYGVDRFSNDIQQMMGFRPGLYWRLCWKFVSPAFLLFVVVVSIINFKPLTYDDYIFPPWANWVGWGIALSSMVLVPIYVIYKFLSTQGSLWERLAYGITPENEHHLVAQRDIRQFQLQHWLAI
UniProt P31645, whole entry: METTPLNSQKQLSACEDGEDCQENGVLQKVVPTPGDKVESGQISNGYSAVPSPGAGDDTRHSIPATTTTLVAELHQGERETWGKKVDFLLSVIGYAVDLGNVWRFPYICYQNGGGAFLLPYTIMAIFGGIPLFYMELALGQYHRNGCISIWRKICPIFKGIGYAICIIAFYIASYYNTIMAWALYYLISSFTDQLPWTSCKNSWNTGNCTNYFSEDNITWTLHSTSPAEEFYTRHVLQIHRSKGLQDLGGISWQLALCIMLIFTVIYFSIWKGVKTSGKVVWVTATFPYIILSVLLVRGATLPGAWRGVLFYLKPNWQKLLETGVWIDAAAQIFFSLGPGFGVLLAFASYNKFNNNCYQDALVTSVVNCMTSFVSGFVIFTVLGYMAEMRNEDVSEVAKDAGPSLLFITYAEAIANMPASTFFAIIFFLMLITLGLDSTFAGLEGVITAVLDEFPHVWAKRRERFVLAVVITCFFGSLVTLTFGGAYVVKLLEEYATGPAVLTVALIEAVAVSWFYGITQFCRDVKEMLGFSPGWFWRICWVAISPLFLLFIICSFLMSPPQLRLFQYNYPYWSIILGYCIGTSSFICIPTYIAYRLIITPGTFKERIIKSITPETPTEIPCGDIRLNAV
UniProt Q63380, 1-617: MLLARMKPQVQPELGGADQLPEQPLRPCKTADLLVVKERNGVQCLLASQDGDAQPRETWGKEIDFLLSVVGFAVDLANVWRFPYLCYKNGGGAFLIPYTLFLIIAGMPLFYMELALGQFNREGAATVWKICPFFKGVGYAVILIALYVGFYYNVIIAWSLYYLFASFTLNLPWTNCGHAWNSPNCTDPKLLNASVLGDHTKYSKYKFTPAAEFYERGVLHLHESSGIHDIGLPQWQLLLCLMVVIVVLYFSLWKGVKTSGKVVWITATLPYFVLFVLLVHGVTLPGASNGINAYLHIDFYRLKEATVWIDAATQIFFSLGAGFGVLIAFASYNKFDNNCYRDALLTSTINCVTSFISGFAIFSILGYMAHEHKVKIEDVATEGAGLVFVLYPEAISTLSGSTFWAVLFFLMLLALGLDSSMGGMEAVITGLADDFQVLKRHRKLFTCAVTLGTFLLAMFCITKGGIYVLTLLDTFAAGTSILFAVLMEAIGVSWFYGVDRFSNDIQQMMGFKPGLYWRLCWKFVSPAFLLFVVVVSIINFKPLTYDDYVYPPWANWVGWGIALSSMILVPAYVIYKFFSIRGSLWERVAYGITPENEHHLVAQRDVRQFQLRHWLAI
UniProt P23977, whole entry: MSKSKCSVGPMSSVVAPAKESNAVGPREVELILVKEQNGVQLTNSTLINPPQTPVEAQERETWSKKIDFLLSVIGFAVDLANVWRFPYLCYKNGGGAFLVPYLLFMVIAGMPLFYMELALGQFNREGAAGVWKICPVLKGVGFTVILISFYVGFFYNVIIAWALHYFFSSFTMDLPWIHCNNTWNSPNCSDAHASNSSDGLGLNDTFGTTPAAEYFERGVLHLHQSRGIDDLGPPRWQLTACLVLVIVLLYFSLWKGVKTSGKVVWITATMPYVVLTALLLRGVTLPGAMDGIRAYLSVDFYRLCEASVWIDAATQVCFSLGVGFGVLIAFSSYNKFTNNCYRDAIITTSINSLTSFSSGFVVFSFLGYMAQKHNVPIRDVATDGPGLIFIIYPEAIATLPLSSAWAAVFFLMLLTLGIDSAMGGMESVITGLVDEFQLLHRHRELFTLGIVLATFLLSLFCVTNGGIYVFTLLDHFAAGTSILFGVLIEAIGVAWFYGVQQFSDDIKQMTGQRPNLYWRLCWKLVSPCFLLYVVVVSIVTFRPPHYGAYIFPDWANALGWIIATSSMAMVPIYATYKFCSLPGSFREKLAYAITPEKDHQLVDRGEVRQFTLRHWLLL
UniProt Q61327, whole entry: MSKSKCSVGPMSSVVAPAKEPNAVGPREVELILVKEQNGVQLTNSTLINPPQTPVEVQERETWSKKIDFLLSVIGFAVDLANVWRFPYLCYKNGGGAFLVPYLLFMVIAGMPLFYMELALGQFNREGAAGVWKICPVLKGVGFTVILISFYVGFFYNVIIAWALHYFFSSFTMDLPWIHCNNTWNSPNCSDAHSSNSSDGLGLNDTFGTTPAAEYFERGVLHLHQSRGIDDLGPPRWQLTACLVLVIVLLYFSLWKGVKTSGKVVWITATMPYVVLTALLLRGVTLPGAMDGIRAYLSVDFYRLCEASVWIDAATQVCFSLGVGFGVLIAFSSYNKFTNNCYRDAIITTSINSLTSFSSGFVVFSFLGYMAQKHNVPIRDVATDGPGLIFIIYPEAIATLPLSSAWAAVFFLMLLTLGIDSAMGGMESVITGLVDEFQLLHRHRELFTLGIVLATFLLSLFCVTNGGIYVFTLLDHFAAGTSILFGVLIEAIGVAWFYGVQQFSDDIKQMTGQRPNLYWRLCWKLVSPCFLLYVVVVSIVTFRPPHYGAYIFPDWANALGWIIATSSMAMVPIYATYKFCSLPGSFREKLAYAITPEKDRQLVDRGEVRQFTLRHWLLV
UniProt P31652, whole entry: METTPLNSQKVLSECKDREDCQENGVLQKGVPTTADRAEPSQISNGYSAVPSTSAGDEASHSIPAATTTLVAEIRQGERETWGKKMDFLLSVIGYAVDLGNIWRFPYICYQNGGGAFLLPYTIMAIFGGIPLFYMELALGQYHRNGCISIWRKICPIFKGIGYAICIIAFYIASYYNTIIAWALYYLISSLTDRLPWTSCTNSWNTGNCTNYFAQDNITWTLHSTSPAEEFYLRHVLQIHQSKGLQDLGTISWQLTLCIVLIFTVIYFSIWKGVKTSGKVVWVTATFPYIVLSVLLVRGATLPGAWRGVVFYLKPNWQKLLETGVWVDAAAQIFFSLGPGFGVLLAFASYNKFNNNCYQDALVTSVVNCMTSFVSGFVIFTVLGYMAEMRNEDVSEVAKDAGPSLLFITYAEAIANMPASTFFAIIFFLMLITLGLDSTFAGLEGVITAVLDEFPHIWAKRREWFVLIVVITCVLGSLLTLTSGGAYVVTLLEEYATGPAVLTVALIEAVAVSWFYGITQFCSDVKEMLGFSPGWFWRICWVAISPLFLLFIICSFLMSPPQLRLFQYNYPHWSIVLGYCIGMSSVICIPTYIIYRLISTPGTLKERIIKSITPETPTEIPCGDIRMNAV
UniProt Q01959, whole entry: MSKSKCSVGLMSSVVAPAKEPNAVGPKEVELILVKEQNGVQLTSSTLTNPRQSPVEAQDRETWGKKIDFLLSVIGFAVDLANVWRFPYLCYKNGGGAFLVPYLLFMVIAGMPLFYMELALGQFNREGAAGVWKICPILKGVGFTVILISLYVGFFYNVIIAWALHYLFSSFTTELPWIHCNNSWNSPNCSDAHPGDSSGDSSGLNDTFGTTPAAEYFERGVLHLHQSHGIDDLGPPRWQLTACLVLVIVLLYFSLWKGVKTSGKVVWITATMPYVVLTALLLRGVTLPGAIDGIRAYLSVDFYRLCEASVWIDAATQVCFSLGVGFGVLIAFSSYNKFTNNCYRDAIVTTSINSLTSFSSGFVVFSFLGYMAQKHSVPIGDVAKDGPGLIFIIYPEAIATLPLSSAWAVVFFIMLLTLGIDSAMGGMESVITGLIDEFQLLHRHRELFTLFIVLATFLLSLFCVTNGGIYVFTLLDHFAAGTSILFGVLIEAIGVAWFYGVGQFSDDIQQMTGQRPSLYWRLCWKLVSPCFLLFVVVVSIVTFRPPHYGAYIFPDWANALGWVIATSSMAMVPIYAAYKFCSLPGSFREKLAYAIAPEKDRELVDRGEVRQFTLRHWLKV

[4] = target: T2, dopamine transporter (Rattus norvegicus, UniProt P23977); assay: biochemical; details: Rat IC50 (nM) rDAT, rat synaptosomes, dopamine transporter (DAT)
T2 construct: synaptosomes isolated in a 0.32 M sucrose buffer from a male Wistar rat striatum; from tissue; host or cells: male Wistar rat striatum synaptosomes

[5] = target: T3, DA Transporter (DAT) Sites in Mouse Brain (Mus musculus, UniProt Q61327); assay: Ex vivo [3H] WIN 35428 binding after oral dosing; design: species or system C57BL/6 mice; details: 1 mg/kg, mice sacrificed 60 minutes after treatment, striatum
T3 construct: Striatum was used to determine occupancy of DA transporter sites; from tissue; host or cells: C57BL/6 mouse striatum homogenate

[6] = system: mice; assay: Mouse tail suspension test; type: in vivo; details: PO, 30-60 minutes before the test, 5 minutes recording
Experimental: The method, which detects antidepressant activity, follows that described by Stéru et al (Psychopharmacology, 85, 367-370, 1985). Rodents, suspended by the tail, rapidly become immobile. Antidepressants decrease the duration of immobility.
Ten to twelve mice were tested in each group. The test was performed blind. Compounds were typically evaluated at 3 doses (1-30 mg/kg), administered orally one time: 30-60 minutes before the test, and compared with a vehicle control group. Desipramine (100 mg/kg), administered under the same experimental conditions, was used as the positive reference substance.
Data were analyzed by one way analysis of variance (ANOVA) followed by post-hoc comparisons where appropriate. An effect was considered significant if p < 0.05. Data are represented as the mean and standard error to the mean (s.e.m).

[7] = target: T4, serotonin transporter (Rattus norvegicus, UniProt P31652); assay: biochemical; details: Rat IC50 (nM) rSERT, rat synaptosomes, serotonin transporter (SERT)
T4 construct: synaptosomes isolated in a 0.32M sucrose buffer from a male Wistar rat cortex; from tissue; host or cells: male Wistar rat cortex synaptosomes

[8] = system: Rats; assay: Rat forced swim test; type: in vivo; details: PO, 24 hours and 30-60 minutes before the 5 minute test
Experimental: Rats forced to swim in a situation from which they cannot escape rapidly become immobile. Antidepressants decrease the duration of immobility. […] Selective NE reuptake inhibitors decrease immobility by increasing climbing behaviors whereas selective 5-HT reuptake inhibitors decrease immobility by increasing swimming behaviors.
Rats were individually placed in a cylinder (Height = 40 cm; Diameter = 20 cm) containing 22 cm water (25°C) for 15 minutes on the first day of the experiment (Session 1) and were then put back in the water 24 hours later for a 5 minute test (Session 2). The sessions were videotaped and duration of immobility as well as swimming and climbing behaviors during the 5 minute test were measured. Twelve rats were tested in each group. The test was performed blind. Compounds were typically evaluated at 3 doses (1-30 mg/kg), administered orally 2 times: 24 hours and 30-60 minutes before the test (Session 2), and compared with a vehicle control group. Desipramine (20 mg/kg i.p.), administered under the same experimental conditions, was used as the positive reference substance.
Data were analyzed by one way analysis of variance (ANOVA) followed by post-hoc comparisons where appropriate. An effect will be considered significant if p < 0.05. Data are represented as the mean and standard error to the mean (s.e.m).

[9] = target: T5, human dopamine reuptake transporter (Homo sapiens, UniProt Q01959); assay: cell-based; details: Human IC50 (nM) hDAT
T5 construct: expressed in transfected cells; host or cells: CHO-K1 or HEK293

Which IC50 ([1]; Human IC50 (nM) hNET) does the source give for `CC(N)C1(c2ccc(Cl)c(Cl)c2)CCCCC1` (single isomer, unassigned) [2 E1, 1-(1-(3,4-dichlorophenyl)cyclohexyl)ethanamine] here?
The IC50 was 167 nM.

`CC(C)CC(N(C)C)C1(c2ccc(Cl)c(Cl)c2)CCCCC1` (racemic) [Compound 46, 1-(1-(3,4-dichlorophenyl)cyclohexyl)-N,N,3-trimethylbutan-1-amine] was tested. Which IC50 ([1]; Human IC50 (nM) hNET) did it give?
The IC50 was > 10000 nM.

`CC(N)C1(c2ccc(OC(F)(F)F)cc2)CCCCC1` (single isomer, unassigned) [19 E2, 1-(1-(4-(trifluoromethoxy)phenyl)cyclohexyl)ethanamine] was tested. Which IC50 ([1]; Human IC50 (nM) hNET) did it give?
The IC50 was 4030 nM.

For `CC(N(C)C)C1(c2ccc3ccccc3c2)CCCCC1` (single isomer, unassigned) [56 E1, N,N-dimethyl-1-(1-(naphthalen-2-yl)cyclohexyl)ethanamine], which IC50 ([1]; Human IC50 (nM) hNET) is on record?
Its IC50 is 21 nM.

And the IC50 ([2]; Human IC50 (nM) hSERT)?
The IC50 was < 1 nM.

`CN(C)CC1(c2ccc(Cl)c(Cl)c2)CCCC(F)(F)C1` (single isomer, unassigned) [206 E1, 1-(1-(3,4-dichlorophenyl)-3,3-difluorocyclohexyl)-N,N-dimethylmethanamine] was tested. Which IC50 ([2]; Human IC50 (nM) hSERT) did it give?
The IC50 was 72 nM.

For `CNCC1(c2ccc(Cl)c(Cl)c2)CCC(C)(O)CC1` (centres unmarked) [Compound 276, 4-(3,4-dichlorophenyl)-1-methyl-4-((methylamino)methyl)cyclohexanol], which IC50 [3] is on record?
The IC50 was 17 nM.

And the IC50 [4]?
The IC50 was 190 nM.

And the “Mean Specific Binding (dpm) ± S.E.M., DAT” value [5]?
Its value is 18155 ± 2275 dpm.

And the “Mouse Tail Suspension Mean Immobility Time ± S.E.M.” value ([6]; 3 mg/kg)?
The value was 182.0 ± 4.2.

And the “Mouse Tail Suspension Mean Immobility Time ± S.E.M.” value ([6]; 10 mg/kg)?
Its value is 164.1 ± 5.7.

What about the “Mouse Tail Suspension Mean Immobility Time ± S.E.M.” value ([6]; 30 mg/kg) of the same compound?
The value was 160.2 ± 7.2.

And the IC50 [7]?
The IC50 was 360 nM.

With `CN(C)CC1(c2ccc(Cl)c(Cl)c2)CCC(C)(O)CC1` (centres unmarked) [Compound 277, 4-(3,4-dichlorophenyl)-4-((dimethylamino)methyl)-1-methylcyclohexanol] as the compound, how does the “Rat Forced Swim (Means ± S.E.M.) Climbing” value ([8]; 3 mg/kg) read?
Its value is 9.0 ± 1.2.

What about the “Rat Forced Swim (Means ± S.E.M.) Immobility” value ([8]; 3 mg/kg) of the same compound?
The value was 50.4 ± 1.1.

What about the “Rat Forced Swim (Means ± S.E.M.) Swimming” value ([8]; 3 mg/kg) of the same compound?
Its value is 0.8 ± 0.3.

And the “Rat Forced Swim (Means ± S.E.M.) Climbing” value ([8]; 10 mg/kg)?
The value was 13.8 ± 2.3.

What about the “Rat Forced Swim (Means ± S.E.M.) Immobility” value ([8]; 10 mg/kg) of the same compound?
Its value is 42.5 ± 2.6.

What about the “Rat Forced Swim (Means ± S.E.M.) Swimming” value ([8]; 10 mg/kg) of the same compound?
Its value is 3.7 ± 0.9.

What about the “Rat Forced Swim (Means ± S.E.M.) Climbing” value ([8]; 30 mg/kg) of the same compound?
The value was 35.6 ± 5.2.

What about the “Rat Forced Swim (Means ± S.E.M.) Immobility” value ([8]; 30 mg/kg) of the same compound?
Its value is 14.6 ± 3.5.

What about the “Rat Forced Swim (Means ± S.E.M.) Swimming” value ([8]; 30 mg/kg) of the same compound?
Its value is 6.1 ± 1.4.

What about the IC50 [3] of the same compound?
The IC50 was 2.7 nM.

What about the “Mouse Tail Suspension Mean Immobility Time ± S.E.M.” value ([6]; 3 mg/kg) of the same compound?
Its value is 182.3 ± 8.1.

And the “Mouse Tail Suspension Mean Immobility Time ± S.E.M.” value ([6]; 10 mg/kg)?
Its value is 164.4 ± 6.8.

And the “Mouse Tail Suspension Mean Immobility Time ± S.E.M.” value ([6]; 30 mg/kg)?
The value was 147.1 ± 3.1.

`CC(N)C1(c2ccc(OC(F)(F)F)cc2)CCCCC1` (centres unmarked) [Compound 19, 1-(1-(4-(trifluoromethoxy)phenyl)cyclohexyl)ethanamine] was tested. Which IC50 ([1]; Human IC50 (nM) hNET) did it give?
The IC50 was 3180 nM.

`CC(N)C1(c2ccc(Cl)c(Cl)c2)CCCCC1` (single isomer, unassigned) [Compound 2E2, 1-(1-(3,4-dichlorophenyl)cyclohexyl)ethanamine] was tested. Which IC50 ([1]; Human IC50 (nM) hNET) did it give?
The IC50 was 1040 nM.

For `CC(C)CC(N)C1(c2ccc(Cl)cc2)CCCCC1` (single isomer, unassigned) [21 E2, 1-(1-(4-chlorophenyl)cyclohexyl)-3-methylbutan-1-amine], which IC50 [9] is on record?
Its IC50 is 64 nM.

`CC(N(C)C)C1(c2ccc3ccccc3c2)CCCCC1` (racemic) [Compound 55, N,N-dimethyl-1-(1-(naphthalen-2-yl)cyclohexyl)ethanamine] was tested. Which IC50 ([1]; Human IC50 (nM) hNET) did it give?
Its IC50 is 61 nM.

What does the source list for `CC(N(C)C)C1(c2ccc3ccccc3c2)CCCCC1` (single isomer, unassigned) [56 E2, N,N-dimethyl-1-(1-(naphthalen-2-yl)cyclohexyl)ethanamine]?
IC50 ([1]; Human IC50 (nM) hNET): 468 nM; IC50 ([2]; Human IC50 (nM) hSERT): 63 nM

With `CNCC1(c2ccc(Cl)c(Cl)c2)CCCC(F)(F)C1` (single isomer, unassigned) [205 E2, 1-(1-(3,4-dichlorophenyl)-3,3-difluorocyclohexyl)-N-methylmethanamine] as the compound, how does the IC50 [9] read?
The IC50 was 12 nM.

`CNCC1(c2ccc(Cl)c(Cl)c2)CCCCC1.Cl` [Compound 75, 1-(1-(3,4-dichlorophenyl)cyclohexyl)-N-methylmethanamine (hydrochloride)] was tested. Which IC50 [7] did it give?
The IC50 was 110 nM.

`CC(C)CC(N)C1(c2ccc(Cl)cc2)CCCCC1` (centres unmarked) [Compound 21, 1-(1-(4-chlorophenyl)cyclohexyl)-3-methylbutan-1-amine] was tested. Which IC50 [9] did it give?
Its IC50 is 43 nM.

How did the IC50 ([1]; read-out: Human IC50 (nM) hNET) turn out when `CN(C)C[C@@]1(c2ccc3ccccc3c2)CC=CCC1` [Compound 293, N,N-dimethyl(1-(naphthalen-2-yl)cyclohex-3-enyl)methanamine] was run?
The IC50 was 33 nM.

What about the IC50 ([2]; read-out: Human IC50 (nM) hSERT) of the same compound?
The IC50 was 42 nM.

For `CC(N)C1(c2ccc(OC(F)(F)F)cc2)CCCCC1` (single isomer, unassigned) [19 E1, 1-(1-(4-(trifluoromethoxy)phenyl)cyclohexyl)ethanamine], which IC50 ([1]; Human IC50 (nM) hNET) is on record?
Its IC50 is 1900 nM.
